The values below are quoted from earlier work in patent US20240277641A1, “METHODS FOR TREATING NERVOUS SYSTEM DISORDERS WITH […] AGENTS” (PAXMEDICA, INC., priority 2021, published 2024).

The chains behind the UniProt entries cited, without tags or fusion partners. Where a name states a change or a piece, a line headed by the entry shows the natural chain unless it says otherwise.
UniProt Q99572: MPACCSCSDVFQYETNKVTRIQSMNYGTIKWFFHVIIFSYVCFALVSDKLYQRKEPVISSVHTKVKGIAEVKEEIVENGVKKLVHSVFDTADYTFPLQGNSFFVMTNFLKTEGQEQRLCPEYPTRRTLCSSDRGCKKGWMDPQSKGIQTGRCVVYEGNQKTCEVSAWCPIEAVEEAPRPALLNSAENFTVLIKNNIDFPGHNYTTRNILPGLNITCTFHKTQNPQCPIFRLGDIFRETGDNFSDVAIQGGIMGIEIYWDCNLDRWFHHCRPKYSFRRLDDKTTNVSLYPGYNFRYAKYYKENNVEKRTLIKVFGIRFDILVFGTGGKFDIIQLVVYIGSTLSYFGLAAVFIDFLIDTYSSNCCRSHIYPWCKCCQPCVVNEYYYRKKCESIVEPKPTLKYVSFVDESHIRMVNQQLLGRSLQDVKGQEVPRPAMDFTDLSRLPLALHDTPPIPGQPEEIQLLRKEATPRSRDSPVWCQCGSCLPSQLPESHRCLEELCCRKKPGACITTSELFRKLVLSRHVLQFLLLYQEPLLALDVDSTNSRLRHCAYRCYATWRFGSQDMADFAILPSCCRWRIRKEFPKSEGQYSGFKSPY

One may read the IC50 as the concentration needed to halve the response being measured.

This data set has as its target human P2X7 receptor (Homo sapiens, UniProt Q99572). The following applies: cited from earlier work.

As to `C[C@H](N/C(=N/C#N)Nc1cccc2ncccc12)c1ccccc1` [A-804598, N-Cyano-N″-[(1S)-1-phenylethyl]-N′-5-quinolinyl-guanidine], the half-maximal inhibitory concentration (IC50) is 11 nM.
